# Data published in patent publication US11230717B2, “Plants having increased tolerance to herbicides” (BASF SE, priority 2013, dated 2022).
# The chains behind the UniProt entries cited, without tags or fusion partners.
# UniProt O48604, whole entry R146V/R147D/R148G/A164G/F404L: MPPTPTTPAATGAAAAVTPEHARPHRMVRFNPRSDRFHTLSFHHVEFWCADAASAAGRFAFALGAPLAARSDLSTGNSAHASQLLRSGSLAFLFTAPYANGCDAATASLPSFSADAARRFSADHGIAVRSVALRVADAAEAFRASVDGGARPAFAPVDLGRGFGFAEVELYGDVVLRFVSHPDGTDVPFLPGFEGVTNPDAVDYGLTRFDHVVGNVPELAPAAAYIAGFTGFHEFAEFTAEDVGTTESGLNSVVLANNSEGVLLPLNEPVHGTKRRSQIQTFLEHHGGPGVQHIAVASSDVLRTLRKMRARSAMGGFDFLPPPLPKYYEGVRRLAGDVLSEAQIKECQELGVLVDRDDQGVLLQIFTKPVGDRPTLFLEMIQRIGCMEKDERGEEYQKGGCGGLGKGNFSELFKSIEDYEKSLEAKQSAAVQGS
# UniProt O48604, whole entry R146V/R147D/R148G/A164G/L320N/P321R/L353M: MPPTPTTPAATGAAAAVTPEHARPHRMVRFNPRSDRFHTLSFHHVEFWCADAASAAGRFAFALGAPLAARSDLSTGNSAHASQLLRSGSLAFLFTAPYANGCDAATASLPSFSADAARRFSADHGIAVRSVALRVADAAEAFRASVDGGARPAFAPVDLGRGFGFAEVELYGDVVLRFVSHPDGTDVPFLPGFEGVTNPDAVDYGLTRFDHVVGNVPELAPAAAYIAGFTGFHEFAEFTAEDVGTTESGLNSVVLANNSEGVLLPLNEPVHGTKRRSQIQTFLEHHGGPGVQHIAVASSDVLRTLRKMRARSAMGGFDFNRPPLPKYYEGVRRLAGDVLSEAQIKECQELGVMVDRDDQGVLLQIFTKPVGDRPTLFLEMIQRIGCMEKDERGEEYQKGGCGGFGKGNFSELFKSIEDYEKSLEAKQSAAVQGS
# UniProt O48604, whole entry R146V/R147D/R148G/A164G/S252T: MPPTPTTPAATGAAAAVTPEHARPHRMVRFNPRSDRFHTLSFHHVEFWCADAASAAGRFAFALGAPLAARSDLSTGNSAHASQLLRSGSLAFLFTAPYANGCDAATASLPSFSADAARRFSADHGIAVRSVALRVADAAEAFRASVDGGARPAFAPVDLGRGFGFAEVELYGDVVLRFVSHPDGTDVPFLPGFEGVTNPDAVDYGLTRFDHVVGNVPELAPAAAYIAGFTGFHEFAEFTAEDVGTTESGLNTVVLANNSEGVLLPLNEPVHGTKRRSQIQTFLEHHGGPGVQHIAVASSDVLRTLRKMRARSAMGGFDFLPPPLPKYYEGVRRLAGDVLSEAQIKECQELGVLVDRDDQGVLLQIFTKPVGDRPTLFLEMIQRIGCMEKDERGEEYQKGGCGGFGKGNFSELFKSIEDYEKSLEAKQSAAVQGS
# UniProt O48604, whole entry R146V/R147D/R148G/A164G/L250M: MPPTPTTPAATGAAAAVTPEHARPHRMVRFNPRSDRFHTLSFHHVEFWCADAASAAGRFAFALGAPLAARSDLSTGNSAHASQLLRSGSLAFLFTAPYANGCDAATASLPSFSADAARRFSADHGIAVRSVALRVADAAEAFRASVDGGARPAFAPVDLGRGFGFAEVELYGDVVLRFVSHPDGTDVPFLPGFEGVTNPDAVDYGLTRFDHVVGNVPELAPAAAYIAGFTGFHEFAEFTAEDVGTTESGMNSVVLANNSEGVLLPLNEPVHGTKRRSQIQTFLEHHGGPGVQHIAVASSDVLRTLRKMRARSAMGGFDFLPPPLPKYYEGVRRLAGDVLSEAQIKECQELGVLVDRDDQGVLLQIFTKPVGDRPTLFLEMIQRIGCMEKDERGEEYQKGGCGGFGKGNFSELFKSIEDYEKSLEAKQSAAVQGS
# UniProt O48604, whole entry R146V/R147D/R148G/A164G/L320Q/P321R/L353M: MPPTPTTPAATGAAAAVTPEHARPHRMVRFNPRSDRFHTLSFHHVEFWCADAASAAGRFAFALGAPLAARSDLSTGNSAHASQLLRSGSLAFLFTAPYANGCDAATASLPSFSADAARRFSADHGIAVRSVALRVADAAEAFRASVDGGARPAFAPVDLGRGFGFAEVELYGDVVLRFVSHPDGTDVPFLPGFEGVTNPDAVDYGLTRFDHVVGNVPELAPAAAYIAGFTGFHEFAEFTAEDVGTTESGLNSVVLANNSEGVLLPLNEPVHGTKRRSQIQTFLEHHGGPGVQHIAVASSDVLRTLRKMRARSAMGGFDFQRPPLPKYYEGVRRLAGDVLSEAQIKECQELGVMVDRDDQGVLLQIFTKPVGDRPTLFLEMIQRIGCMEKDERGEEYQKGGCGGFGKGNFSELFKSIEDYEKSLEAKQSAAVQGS
# UniProt O48604, whole entry R146V/R147D/R148G/A164G/R309K: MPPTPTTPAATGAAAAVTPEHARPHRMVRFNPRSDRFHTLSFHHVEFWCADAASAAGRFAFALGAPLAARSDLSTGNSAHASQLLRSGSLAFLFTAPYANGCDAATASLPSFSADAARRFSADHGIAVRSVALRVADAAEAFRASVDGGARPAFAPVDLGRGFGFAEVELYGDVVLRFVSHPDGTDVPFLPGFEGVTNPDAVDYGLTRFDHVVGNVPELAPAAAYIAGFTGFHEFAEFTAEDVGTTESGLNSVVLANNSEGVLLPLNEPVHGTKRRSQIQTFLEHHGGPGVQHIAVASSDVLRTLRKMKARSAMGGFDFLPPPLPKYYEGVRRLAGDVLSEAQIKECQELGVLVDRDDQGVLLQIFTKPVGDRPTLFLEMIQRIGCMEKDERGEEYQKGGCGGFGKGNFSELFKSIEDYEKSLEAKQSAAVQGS
# UniProt O48604, whole entry R146V/R147D/R148G/A164G/F377L: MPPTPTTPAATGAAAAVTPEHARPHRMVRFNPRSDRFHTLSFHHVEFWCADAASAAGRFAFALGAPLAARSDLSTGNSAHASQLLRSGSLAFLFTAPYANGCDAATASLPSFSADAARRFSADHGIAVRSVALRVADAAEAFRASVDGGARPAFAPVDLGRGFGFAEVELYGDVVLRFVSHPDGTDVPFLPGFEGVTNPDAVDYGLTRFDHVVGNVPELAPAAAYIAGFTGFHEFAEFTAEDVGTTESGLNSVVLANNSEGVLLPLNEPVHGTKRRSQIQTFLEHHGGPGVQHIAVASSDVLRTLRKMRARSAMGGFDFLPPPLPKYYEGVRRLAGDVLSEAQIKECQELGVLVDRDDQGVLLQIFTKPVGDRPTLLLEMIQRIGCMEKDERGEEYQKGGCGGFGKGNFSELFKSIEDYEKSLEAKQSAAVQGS
# UniProt O48604, whole entry R146V/R147D/R148G/A164G/L320N: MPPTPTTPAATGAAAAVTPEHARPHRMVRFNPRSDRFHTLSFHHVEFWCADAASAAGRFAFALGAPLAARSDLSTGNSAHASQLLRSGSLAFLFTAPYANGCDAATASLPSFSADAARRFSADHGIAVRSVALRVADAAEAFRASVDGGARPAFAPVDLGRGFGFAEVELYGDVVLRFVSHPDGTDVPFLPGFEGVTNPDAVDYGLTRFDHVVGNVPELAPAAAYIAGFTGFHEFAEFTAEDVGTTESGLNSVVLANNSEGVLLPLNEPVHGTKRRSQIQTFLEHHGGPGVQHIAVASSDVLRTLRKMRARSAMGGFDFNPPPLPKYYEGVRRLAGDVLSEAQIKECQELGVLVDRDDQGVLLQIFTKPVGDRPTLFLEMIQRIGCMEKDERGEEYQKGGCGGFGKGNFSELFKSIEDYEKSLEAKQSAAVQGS
# UniProt P93836, whole entry F381I: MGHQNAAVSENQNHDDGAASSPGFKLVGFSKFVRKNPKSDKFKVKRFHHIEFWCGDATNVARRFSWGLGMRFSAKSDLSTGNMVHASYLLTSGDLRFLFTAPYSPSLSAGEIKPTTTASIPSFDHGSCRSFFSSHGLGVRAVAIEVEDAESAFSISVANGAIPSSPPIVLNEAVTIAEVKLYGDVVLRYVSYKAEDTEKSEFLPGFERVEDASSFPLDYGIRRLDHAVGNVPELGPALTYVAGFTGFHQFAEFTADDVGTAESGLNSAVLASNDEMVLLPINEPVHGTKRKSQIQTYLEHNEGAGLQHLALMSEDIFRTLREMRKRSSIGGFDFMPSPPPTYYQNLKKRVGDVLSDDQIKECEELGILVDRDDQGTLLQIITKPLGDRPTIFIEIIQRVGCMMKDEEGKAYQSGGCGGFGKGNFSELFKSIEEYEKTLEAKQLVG
# UniProt P93836, whole entry M335H/P336A: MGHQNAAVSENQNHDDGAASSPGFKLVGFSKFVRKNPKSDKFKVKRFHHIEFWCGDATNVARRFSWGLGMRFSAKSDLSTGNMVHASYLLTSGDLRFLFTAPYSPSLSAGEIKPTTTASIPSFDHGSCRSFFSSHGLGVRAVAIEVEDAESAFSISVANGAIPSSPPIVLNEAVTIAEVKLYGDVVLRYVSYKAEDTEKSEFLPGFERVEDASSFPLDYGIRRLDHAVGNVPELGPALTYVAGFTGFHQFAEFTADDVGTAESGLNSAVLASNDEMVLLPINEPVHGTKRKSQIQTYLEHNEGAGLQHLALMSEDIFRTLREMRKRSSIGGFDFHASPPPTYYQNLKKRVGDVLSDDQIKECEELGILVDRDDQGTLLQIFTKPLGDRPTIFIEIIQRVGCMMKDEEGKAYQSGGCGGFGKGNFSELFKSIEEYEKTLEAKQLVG
# UniProt P93836, whole entry M335H/P336G: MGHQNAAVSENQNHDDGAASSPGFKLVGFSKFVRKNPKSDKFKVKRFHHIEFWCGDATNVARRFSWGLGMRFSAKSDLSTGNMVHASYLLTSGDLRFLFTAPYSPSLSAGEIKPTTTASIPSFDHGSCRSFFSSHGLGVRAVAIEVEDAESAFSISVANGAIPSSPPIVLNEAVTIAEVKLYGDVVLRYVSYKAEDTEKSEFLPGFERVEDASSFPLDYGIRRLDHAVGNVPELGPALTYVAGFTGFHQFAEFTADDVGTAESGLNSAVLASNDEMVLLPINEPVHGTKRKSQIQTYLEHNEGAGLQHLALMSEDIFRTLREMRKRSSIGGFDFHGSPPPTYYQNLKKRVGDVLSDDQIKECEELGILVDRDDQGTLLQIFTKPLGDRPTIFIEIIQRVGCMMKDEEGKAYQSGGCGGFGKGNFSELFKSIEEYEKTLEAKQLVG
# UniProt P93836, whole entry M335H/P336G/E363Q: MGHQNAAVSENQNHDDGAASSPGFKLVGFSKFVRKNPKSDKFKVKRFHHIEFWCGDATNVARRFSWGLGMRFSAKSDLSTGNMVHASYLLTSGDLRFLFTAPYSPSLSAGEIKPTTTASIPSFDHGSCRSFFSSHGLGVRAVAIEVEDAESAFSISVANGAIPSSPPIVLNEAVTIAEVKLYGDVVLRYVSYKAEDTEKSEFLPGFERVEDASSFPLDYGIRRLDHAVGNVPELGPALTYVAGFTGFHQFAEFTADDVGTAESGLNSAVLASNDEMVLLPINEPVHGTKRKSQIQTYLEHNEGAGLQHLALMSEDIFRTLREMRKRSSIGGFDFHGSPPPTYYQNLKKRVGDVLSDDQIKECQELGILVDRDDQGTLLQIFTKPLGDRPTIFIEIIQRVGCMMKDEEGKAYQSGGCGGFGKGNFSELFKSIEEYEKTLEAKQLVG
# UniProt P93836, whole entry F381L: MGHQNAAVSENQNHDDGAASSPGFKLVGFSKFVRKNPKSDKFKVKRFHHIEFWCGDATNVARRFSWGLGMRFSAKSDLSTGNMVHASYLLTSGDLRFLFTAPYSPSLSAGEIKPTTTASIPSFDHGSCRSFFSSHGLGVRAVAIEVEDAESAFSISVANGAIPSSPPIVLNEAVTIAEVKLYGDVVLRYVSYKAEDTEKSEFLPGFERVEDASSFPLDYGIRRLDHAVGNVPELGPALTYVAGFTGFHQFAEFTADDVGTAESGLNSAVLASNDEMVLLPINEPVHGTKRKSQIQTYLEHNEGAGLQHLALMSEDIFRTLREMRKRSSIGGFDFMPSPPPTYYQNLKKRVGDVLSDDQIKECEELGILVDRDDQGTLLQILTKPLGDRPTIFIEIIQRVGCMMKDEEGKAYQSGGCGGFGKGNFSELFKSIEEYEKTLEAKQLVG
# Legend:
# [1] = molecular target: T1, Hordeum HPPD variant F404L (Hordeum vulgare, UniProt O48604, A164G/F404L/R146V/R147D/R148G); experiment: HPPD activity assay, in vitro characterization of HPPD mutants; format: biochemical; conditions: normalized to wild-type
# T1 construct: His (N); made in house; host or cells: E. coli BL21 (DE3)
# Experimental: (§1) HPPD produces homogentisic acid and CO2 from 4-hydroxyphenylpyruvate (4-HPP) and O2. The activity assay for HPPD is based on the analysis of homogentisic acid by reversed phase HPLC.
# (§2) The assay mixture can contain 150 mM potassium phosphate buffer pH 7.0, 50 mM L-ascorbic acid, 100 μM Catalase (Sigma-Aldrich), 1 μM FeSO4 and 0.2 units of purified HPPD enzyme in a total volume of 505 μl. 1 unit is defined as the amount of enzyme that is required to produce 1 nmol of HGA per minute at 20° C.
# (§3) After a preincubation of 30 min the reaction is started by adding 4-HPP to a final concentration of 0.05 mM. The reaction is allowed to proceed for 45 min at room temperature. The reaction is stopped by the addition of 50 μl of 4.5 M phosphoric acid. The sample is filtered using a […] pore size PVDF filtration device.
# (§4) 5 μl of the cleared sample is analyzed on an UPLC HSS T3 column (particle size 1.8 μm, dimensions 2,1×50 mm; Waters) by isocratic elution using 90% 20 mM NaH2PO4 pH 2.2, 10% methanol (v/v).
# (§5) HGA is detected electrochemically at 750 mV (mode: DC; polarity: positive) and quantified by integrating peak areas (Empower software; Waters).
# (§6) Inhibitors are dissolved in DMSO (dimethylsulfoxide) to a concentration of 0.5 mM. From this stock solution serial five-fold dilutions are prepared in DMSO, which are used in the assay. The respective inhibitor solution accounts for 1% of the assay volume. […] Activities are normalized by setting the uninhibited enzyme activity to 100%. IC50 values are calculated using non-linear regression.
# (§7) Purified, mutant HPPD enzymes are obtained by the methods described above. Dose response and kinetic measurements are carried out using the described HPPD activity assay. Apparent michaelis constants (Km) and maximal reaction velocities (Vmax) are calculated by non-linear regression with the software GraphPad Prism 5 (GraphPad Software, La Jolla, USA) using a substrate inhibition model. […] Weighted means (by standard error) of Km and IC50 values are calculated from at least three independent experiments.
# (§8) Field performance of the optimized HPPD enzyme, which is used as a herbicide tolerance trait may depend not only on its lack of sensitivity towards HPPD inhibiting herbicides but also on its activity. To assess the potential performance of a herbicide tolerance trait a tolerance index (TI) is calculated using the following formula: […]
# [2] = molecular target: T2, Hordeum HPPD variant L353M, P321R, L320N (Hordeum vulgare, UniProt O48604, L320N/L353M/P321R); experiment: as above; format: biochemical; conditions: normalized to wild-type
# T2 construct: His (N); made in house; host or cells: E. coli BL21 (DE3)
# Experimental: as §1, §2, §3, §4, §5, §6, §7, §8
# [3] = molecular target: T3, Arabidopsis HPPD variant F381I (Arabidopsis thaliana, UniProt P93836, F381I); experiment: as above; format: biochemical; conditions: normalized to wildtype
# T3 construct: His6 (N); made in house; host or cells: E. coli BL21 (DE3)
# Experimental: as §1, §2, §3, §4, §5, §6, §7, §8
# [4] = molecular target: T4, Hordeum HPPD variant S252T (Hordeum vulgare, UniProt O48604, A164G/R146V/R147D/R148G/S252T); experiment: as above; format: biochemical; conditions: normalized to wild-type
# T4 construct: His (N); made in house; host or cells: E. coli BL21 (DE3)
# Experimental: as §1, §2, §3, §4, §5, §6, §7, §8
# [5] = molecular target: T5, Arabidopsis HPPD variant M335H, P336A (Arabidopsis thaliana, UniProt P93836, M335H/P336A); experiment: as above; format: biochemical; conditions: normalized to wildtype
# T5 construct: His6 (N); made in house; host or cells: E. coli BL21 (DE3)
# Experimental: as §1, §2, §3, §4, §5, §6, §7, §8
# [6] = molecular target: T6, Hordeum HPPD variant L250M (Hordeum vulgare, UniProt O48604, A164G/L250M/R146V/R147D/R148G); experiment: as above; format: biochemical; conditions: normalized to wild-type
# T6 construct: His (N); made in house; host or cells: E. coli BL21 (DE3)
# Experimental: as §1, §2, §3, §4, §5, §6, §7, §8
# [7] = molecular target: T7, Hordeum HPPD variant L353M, P321R, L320Q (Hordeum vulgare, UniProt O48604, L320Q/L353M/P321R); experiment: as above; format: biochemical; conditions: normalized to wild-type
# T7 construct: His (N); made in house; host or cells: E. coli BL21 (DE3)
# Experimental: as §1, §2, §3, §4, §5, §6, §7, §8
# [8] = molecular target: T8, Hordeum HPPD variant R309K (Hordeum vulgare, UniProt O48604, A164G/R146V/R147D/R148G/R309K); experiment: as above; format: biochemical; conditions: normalized to wild-type
# T8 construct: His (N); made in house; host or cells: E. coli BL21 (DE3)
# Experimental: as §1, §2, §3, §4, §5, §6, §7, §8
# [9] = molecular target: T9, Arabidopsis HPPD variant M335H, P336G (Arabidopsis thaliana, UniProt P93836, M335H/P336G); experiment: as above; format: biochemical; conditions: normalized to wildtype
# T9 construct: His6 (N); made in house; host or cells: E. coli BL21 (DE3)
# Experimental: as §1, §2, §3, §4, §5, §6, §7, §8
# [10] = molecular target: T10, Hordeum HPPD variant F377L (Hordeum vulgare, UniProt O48604, A164G/F377L/R146V/R147D/R148G); experiment: as above; format: biochemical; conditions: normalized to wild-type
# T10 construct: His (N); made in house; host or cells: E. coli BL21 (DE3)
# Experimental: as §1, §2, §3, §4, §5, §6, §7, §8
# [11] = molecular target: T11, Arabidopsis HPPD variant M335H, P336G, E363Q (Arabidopsis thaliana, UniProt P93836, E363Q/M335H/P336G); experiment: as above; format: biochemical; conditions: normalized to wildtype
# T11 construct: His6 (N); made in house; host or cells: E. coli BL21 (DE3)
# Experimental: as §1, §2, §3, §4, §5, §6, §7, §8
# [12] = molecular target: T12, Hordeum HPPD variant L320N (Hordeum vulgare, UniProt O48604, A164G/L320N/R146V/R147D/R148G); experiment: as above; format: biochemical; conditions: normalized to wild-type
# T12 construct: His (N); made in house; host or cells: E. coli BL21 (DE3)
# Experimental: as §1, §2, §3, §4, §5, §6, §7, §8
# [13] = molecular target: T13, Arabidopsis HPPD variant F381L (Arabidopsis thaliana, UniProt P93836, F381L); experiment: as above; format: biochemical; conditions: normalized to wildtype
# T13 construct: His6 (N); made in house; host or cells: E. coli BL21 (DE3)
# Experimental: as §1, §2, §3, §4, §5, §6, §7, §8
# [14] = test system: transgenic Arabidopsis plants; experiment: Greenhouse testing of transgenic Arabidopsis plants (T2), herbicide spray test; format: in vivo, Arabidopsis thaliana; conditions: Arabidopsis expressing SEQ ID NO:2 with L320H
# Experimental: Transgenic plants expressing heterologous HPPD or HST enzymes are tested for tolerance against HPPD-inhibiting herbicides in greenhouse experiments.
# For post emergence treatment, the test plants are first grown to a height of 3 to 15 cm, depending on the plant habit, and only then treated with the herbicides. For this purpose, the test plants are either sown directly and grown in the same containers, or they are first grown separately and transplanted into the test containers a few days prior to treatment. For testing of T0 plants, cuttings can be used. In the case of soybean plants, an optimal shoot for cutting is about 7.5 to 10 cm tall, with at least two nodes present. Each cutting is taken from the original transformant (mother plant) and dipped into rooting hormone powder (indole-3-butyric acid, IBA). The cutting is then placed in oasis wedges inside a bio-dome. Wild type cuttings are also taken simultaneously to serve as controls. The cuttings are kept in the bio-dome for 5-7 days and then transplanted to pots and then acclimated in the growth chamber for two more days. Subsequently, the cuttings are transferred to the greenhouse, acclimated for approximately 4 days, and then subjected to spray tests as indicated.
# Additionally, T1 and T2 transgenic Arabidopsis plants can be tested for improved tolerance to HPPD-inhibiting herbicides in a greenhouse studies. […]
# [15] = test system: Avena HPPD; experiment: HPPD activity assay, in vitro characterization; format: biochemical, Avena sativa; conditions: normalized to Hordeum SEQ ID NO:2
# Experimental: as §1, §2, §3, §4, §5
# Inhibitors are dissolved in DMSO (dimethylsulfoxide) to a concentration of 0.5 mM. From this stock solution serial five-fold dilutions are prepared in DMSO, which are used in the assay. […] IC50 values are calculated using non-linear regression. […]
smiles,measurement,setting,value
"CSc1c(Cl)cc(F)c(C(=O)Nc2nnnn2C)c1Cl [Inhibitor 2, 2,4-dichloro-6-fluoro-3-methylsulfanyl-N-(1-methyltetrazol-5-yl)benzamide]",Normalized tolerance index (TI),[1],0.9
same,Normalized tolerance index (TI),[2],1.2
same,Normalized tolerance index (TI),[3],0.6
same,Normalized tolerance index (TI),[4],7.3
same,Normalized tolerance index (TI),[5],0.8
same,Normalized tolerance index (TI),[6],0.8
same,Normalized tolerance index (TI),[7],3
same,Normalized tolerance index (TI),[8],2.1
same,Normalized tolerance index (TI),[9],0.9
same,Normalized tolerance index (TI),[10],2.1
same,Normalized tolerance index (TI),[11],1.1
same,Normalized tolerance index (TI),[12],0.6
same,Normalized tolerance index (TI),[13],0.8
same,resistance compared to untransformed wild-type plants,[14],more resistant
same,Normalized tolerance index (TI),[15],3.8
